# Yeast mating assay 1: variants of the scFv Ab-14

Antigen: PDVDLGDISGINAS, a 14-residue peptide of the SARS-CoV-2 spike HR2 region.

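The parent was found by panning a naive human phage display library on the peptide. AAYL50 was designed without a model: most single CDR substitutions and a random sample of double and triple ones. AlphaSeq pools MATa yeast showing the antibodies with MATalpha yeast showing the peptide. Binding brings cells together so that they mate, and sequencing counts the barcode pairs among the diploids. The ratio of observed to expected reads was calibrated, replicate by replicate, on BCL2-family standards whose Kd was known from biolayer interferometry. Mating was done three times.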

Each scFv is VH, three GGGGS repeats, VL, as in the parent Ab-14, and differs from it in the CDRs of the light chain only.
VH: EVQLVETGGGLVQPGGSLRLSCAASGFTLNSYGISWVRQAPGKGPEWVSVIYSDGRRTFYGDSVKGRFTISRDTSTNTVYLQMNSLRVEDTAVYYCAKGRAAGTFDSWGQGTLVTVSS
VL: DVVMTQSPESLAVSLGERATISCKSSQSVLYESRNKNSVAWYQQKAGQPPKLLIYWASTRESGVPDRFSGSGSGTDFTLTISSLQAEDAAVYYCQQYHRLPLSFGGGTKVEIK

Each variant is given by its three light chain CDRs, as the data file delimits them; those of the parent are KSSQSVLYESRNKNSVA, WASTRES, QQYHRLPLS.
All variants listed here change N35 of the VL, counted from its first residue.
Each Kd is an estimate from the mating assay, the geometric mean of the replicates in which the pair was seen; lower is stronger.
A pair that was not seen in any replicate is written "no signal"; this usually means weak binding, but a binder can also be missed.
In this assay the parent's reference entry averaged 4.4 nM; its copy inside this library read 48 nM.
As a blank, each scFv also met three strains without target: over library AAYL50, 18% of these pairings were detected, typically at 15 µM and seldom below 970 nM.

KSSRSVLYESRVKNSVA | WASTRES | QQYHRLPLS: no signal (0 of 3 replicates).
KSSQSVLMESRLKNSTA | WASTRES | QQYHRLPLS: 730 µM (3 of 3 replicates).
KSSQSVLYPSRAKNSVA | WASTRES | QQYHRLDLS: 59 nM (3 of 3 replicates).
NSSQSVLYESRYKLSVA | WASTRES | QQYHRLPLS: no signal (0 of 3 replicates).
KSSQSVLKESRIKNSVA | WASTRES | QQYHRLPLS: 53 nM (1 of 3 replicates).
KSSQSVLYESRYKNSVA | WASTRES | QQIHRLSLS: no signal (0 of 3 replicates).
KSSQSVLYESRRKNCVA | WASTRES | QQYHRLPLS: 9.7 µM (2 of 3 replicates).
KSSQSVPYESRHKNSVA | SASTRES | QQYHRLPLS: 3.2 nM (3 of 3 replicates).
KSSQSVTYESRWKNSVA | WASTRES | QKYHRLPLS: 9.6 nM (3 of 3 replicates).
ESSQSVLYESRYKNSQA | WASTRES | QQYHRLPLS: 20 µM (2 of 3 replicates).
KSSQSVLYESREKNSVA | WASTRES | QTYHRLPLT: 88 nM (3 of 3 replicates).
KSSQSVLYEKRVKNSQA | WASTRES | QQYHRLPLS: 13 µM (1 of 3 replicates).
KWSQSVLYESRMGNSVA | WASTRES | QQYHRLPLS: 3.9 nM (3 of 3 replicates).
KSSQMALYESRCKNSVA | WASTRES | QQYHRLPLS: 300 nM (3 of 3 replicates).
KSSQSVLYESREKNSVA | WASTRES | QLYMRLPLS: no signal (0 of 3 replicates).
KSSQSVLYESRTKNSVI | WASIRES | QQYHRLPLS: no signal (0 of 3 replicates).
KSSQSVLYESRVKNSAA | WASTREW | QQYHRLPLS: no signal (0 of 3 replicates).
KSSQSVLYESRRKQSVA | WASTRES | QQYHRLPLS: 750 nM (2 of 3 replicates).
KSSKSVLYESRFKNSVA | WASTRES | QQYHRLPLY: 27 nM (1 of 3 replicates).
KSSQSVLYESRRKNSVA | EASTRES | QQYHRLPLS: 35 nM (3 of 3 replicates).
KSSQQVLYESRRKNSVA | WASTRES | QQYHRLPLS: 390 nM (3 of 3 replicates).
KSSQSVLYESRMKNQVA | WASTRES | QQYHRLPLS: 20 nM (3 of 3 replicates).
KSSQSVLRESRDKNSVA | WASTRES | QQYHRLPLS: 1.9 nM (3 of 3 replicates).
KSVCSVLYESRYKNSVA | WASTRES | QQYHRLPLS: no signal (0 of 3 replicates).
KSSQSVLYESRYKNSVA | WASTRES | QQYHYLPSS: no signal (0 of 3 replicates).
KSSQSVLYESRIKNSVA | WASTNES | QIYHRLPLS: no signal (0 of 3 replicates).
KSSQSVLYESRRKNSVA | WASTRDS | QWYHRLPLS: 100 nM (3 of 3 replicates).
KSSQSVLYESRFKNSVA | WASTRES | QQQHCLPLS: no signal (0 of 3 replicates).
KSSQSVLYESRSKNSVA | WASTRES | QQYTRLPLQ: no signal (0 of 3 replicates).
KSSQSVLYESRLKNSVA | WASTRMS | QWYHRLPLS: 1.6 µM (3 of 3 replicates).
KSSQSVLYESRRKNSCA | WASTRES | QVYHRLPLS: 73 µM (1 of 3 replicates).
KSSQSVLYESRRKNSVA | WASTRES | QQYNRLPLS: no signal (0 of 3 replicates).
KSSQSVSYESRSKNSVA | WACTRES | QQYHRLPLS: 440 nM (3 of 3 replicates).
KSSPSVLYESRCKNSVA | QASTRES | QQYHRLPLS: 1.0 nM (3 of 3 replicates).
KSSQSVLYESGCKNSVA | WASTRES | NQYHRLPLS: 5.1 nM (3 of 3 replicates).
KSSQSVLYESRDKKSVA | WASTRES | QQYHRFPLS: 89 nM (3 of 3 replicates).
KSSQSVLYESRDKNSVA | WASTRES | QQYHRLPLS: 6.9 nM (3 of 3 replicates).
KSSQSVLYESRWKNSVA | WASTRES | QQYCRLFLS: 25 nM (3 of 3 replicates).
KSSQSVLAESRGKNSVA | WASLRES | QQYHRLPLS: 7.4 nM (3 of 3 replicates).
KSSQSVLYESRWKNSVN | WASTRES | QQYHRFPLS: 1.8 µM (1 of 3 replicates).
KSSQSVLYESNRKNSVA | WASTRES | QQYHRLPLI: 9.0 nM (3 of 3 replicates).

A selection of 3 entries from above:

CDR-L1,CDR-L2,CDR-L3,Kd,replicates with signal
ESSQSVLYESRYKNSQA,WASTRES,QQYHRLPLS,20 µM,2 of 3
KSSQSVLYESRYKNSVA,WASTRES,QQIHRLSLS,no signal,0 of 3
KSSQSVLYESRRKNSVA,EASTRES,QQYHRLPLS,35 nM,3 of 3

Reference: Engelhart et al. 2022, doi:10.1038/s41597-022-01779-4. File: FLAb, binding data.